## AlphaSeq binding of Ab-14 light chain variants to a spike HR2 peptide

Reference: Engelhart et al. 2022, doi:10.1038/s41597-022-01779-4. File: FLAb, binding data.

Antigen: PDVDLGDISGINAS, a 14-residue peptide of the SARS-CoV-2 spike HR2 region.

Each scFv is VH, the linker GGGGSGGGGSGGGGS, VL, as in the parent Ab-14, and differs from it in the CDRs of the light chain only.
VH: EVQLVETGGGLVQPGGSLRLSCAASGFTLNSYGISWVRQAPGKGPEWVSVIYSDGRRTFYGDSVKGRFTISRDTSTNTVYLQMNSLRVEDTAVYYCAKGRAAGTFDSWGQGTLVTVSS
VL: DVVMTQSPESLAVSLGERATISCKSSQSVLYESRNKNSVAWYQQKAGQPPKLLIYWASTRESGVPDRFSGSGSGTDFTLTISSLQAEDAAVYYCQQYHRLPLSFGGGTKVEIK

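The starting antibody came from a phage panning campaign against this peptide. AAYL50 was designed without a model: most single CDR substitutions and a random sample of double and triple ones. The assay is AlphaSeq: two haploid yeast populations carry antibody and antigen on their surface. The frequency of each diploid, read from paired DNA barcodes, reflects how well the two displayed proteins bind. Read counts were normalised to the haploid input and turned into Kd by a linear fit to BCL2-family pairs of known affinity, for each replicate. There are three technical replicates.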

Substitutions are numbered in sequence along the VL above, starting at 1 (not Kabat).
Values are log10 of the apparent Kd in nM; lower means stronger binding.
An entry "ND" has no value in the source: the pair was not observed among the diploids in that replicate. This suggests poor binding but is not conclusive.
For reference, the parent read 0.65 as the reference entry and 1.68 as a member of this library.
Nonspecific signal, from three strains lacking the peptide, appeared in 18% of pairings of library AAYL50, centred on 4.19 (5% of these signals below 2.99); values are not corrected for it. For each scFv, signals with the empty controls are counted beside the result, with their mean in brackets.

| # | changes | log10 Kd (nM) by replicate | control signals |
|---|---|---|---|
| 1 | S33T+Y97V+L100R | 1.13 1.32 1.52 | 0/9 |
| 2 | L30A+R34N+Q95R | ND ND ND | 0/9 |
| 3 | S25I+V39A+R60M | 4.62 ND ND | 2/9 (4.28) |
| 4 | S33I+K36W+W56R | 0.85 1.11 0.94 | 1/9 (4.20) |
| 5 | V29D | 0.37 0.54 0.48 | 3/9 (3.62) |
| 6 | L30P+E32A+N37C | 2.20 1.94 2.06 | 0/9 |
| 7 | S33C+W56Y+L100A | ND ND ND | 2/9 (3.51) |
| 8 | L30T+K36Y+S103D | 3.79 3.77 3.63 | 1/9 (4.59) |
| 9 | N37P+Q95P+P101V | ND ND ND | 0/9 |
| 10 | K36N+A40G+L100S | ND ND 6.09 | 7/9 (4.38) |
| 11 | W56S+R60V+E61Y | 0.58 0.82 0.76 | 1/9 (3.75) |
| 12 | S28Y+R60I+P101W | ND ND ND | 0/9 |
| 13 | N37S+T59R+R60Q | ND 4.49 ND | 4/9 (4.14) |
| 14 | K24G+S25F+H98A | 1.13 1.34 1.35 | 5/9 (4.04) |
| 15 | Q27P+L30T+R34F | 1.40 1.58 1.61 | 0/9 |
| 16 | Y31W+Q95C+H98D | ND 3.65 3.86 | 3/9 (3.26) |
| 17 | S26V+Q96S+L102Q | ND ND ND | 1/9 (4.26) |
| 18 | S33F+E61N+L100K | ND ND ND | 0/9 |
| 19 | S28D+E32H+E61S | 0.70 1.46 0.73 | 0/9 |
| 20 | K24G+R60M+Y97H | 2.74 3.01 3.40 | 4/9 (4.47) |
| 21 | A57F+Q95K+L102K | 4.30 4.93 ND | 2/9 (5.10) |
| 22 | V29T+S38E+S62P | 1.23 1.28 1.50 | 1/9 (4.78) |
| 23 | Y31R+E32D+S58Q | 2.31 2.02 2.06 | 3/9 (5.23) |
| 24 | V29D+H98V+L102Y | 1.96 2.19 2.15 | 5/9 (4.76) |
| 25 | V29W+Q95L+L100Q | 1.59 1.46 1.42 | 4/9 (4.21) |
| 26 | Q27P+L100T+S103W | ND ND ND | 0/9 |
| 27 | Y31F+S62P+H98Y | 1.38 2.36 2.05 | 0/9 |
| 28 | K24Q+R99G | 2.98 ND 5.09 | 1/9 (4.29) |
| 29 | S25T+H98I+P101L | 0.28 0.65 0.55 | 3/9 (4.30) |
| 30 | S25H+R99A | ND ND ND | 0/9 |
| 31 | L30N+Y31E+E61K | ND ND ND | 1/9 (2.60) |
| 32 | A40T+T59Q+L102N | 4.10 ND ND | 6/9 (4.35) |
| 33 | Q27Y+H98P+P101K | ND ND ND | 2/9 (4.02) |
| 34 | E32V+S33Q+K36A | ND 3.59 ND | 0/9 |
| 35 | N37F+S58K+S103G | 3.21 4.66 ND | 2/9 (2.95) |
| 36 | R34E+N37L+S103F | 1.05 1.59 1.27 | 0/9 |
| 37 | Q27M+Q96P+H98K | ND ND ND | 0/9 |
| 38 | R34M+S38C+P101A | ND ND 3.58 | 0/9 |
| 39 | S26F+R60G+S103Q | 3.97 ND ND | 3/9 (3.34) |
| 40 | S26A+Q27E+S62N | 3.07 4.01 ND | 3/9 (3.68) |
| 41 | S33C+A40G+A57I | ND ND ND | 1/9 (3.74) |

The closing 5 entries, repeated:

| changes | log10 Kd (nM) by replicate | control signals |
|---|---|---|
| Q27M+Q96P+H98K | ND ND ND | 0/9 |
| R34M+S38C+P101A | ND ND 3.58 | 0/9 |
| S26F+R60G+S103Q | 3.97 ND ND | 3/9 (3.34) |
| S26A+Q27E+S62N | 3.07 4.01 ND | 3/9 (3.68) |
| S33C+A40G+A57I | ND ND ND | 1/9 (3.74) |